Assay: Stability of ^14C-MPS and ^14C-MPO in culture media
Assay type: physicochemical
Details: DMEM/F12 culture medium with 1% fetal bovine serum, no cells

For `COP(=O)(OC)Oc1ccc([N+](=O)[O-])cc1` [MPO, methyl paraoxon], the half-life at 1 μM was 102 h.

Work on `COP(=S)(OC)Oc1ccc([N+](=O)[O-])cc1` [MPS, OO, -dimethyl O-4-nitrophenyl phosphorothioate] yielded a half-life at 1 μM of 91.7 h.
